# This is a selection; strong and weak results do not stand in their true shares. Calls of active or inactive are those of the source.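 Rule for the calls: active = inhibition above a set limit, the mean inhibition across all tested compounds plus 3 SD (cut at about 34% in these data); inactive = the rest.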
# Test: blockers of IFN-gamma driven STAT1 reporter – cell-based, HTS, luciferase reporter, primary screen (AID 920);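 note: 0% = IFN-gamma with DMSO and 100% = IFN-gamma with 300 µM nifuroxazide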
# Settings: NIH 3T3 STAT1-luciferase reporter, luminescence, at 5.5 µM, hits give high values
row,SMILES,inhibition
1,CN1CCC(Nc2cccc(F)c2)CC1,inactive: -4.27%
2,CN(C)c1cccc(C(=O)NCC2(N3CCCCC3)CCCCC2)c1,inactive: -0.92%
3,COc1ccc(CN(CCCl)CCCl)cc1Cl,inactive: 10.4%
4,CC(C)c1ccc(NC2CCN(C(=O)OC(C)(C)C)CC2)cc1,inactive: -22.9%
5,COc1ccc(NC2CCN(C(=O)OC(C)(C)C)CC2)cc1,inactive: -8.77%
6,CN1CCN(CCOC(=O)C(O)(c2ccccc2)c2ccccc2)CC1,inactive: -3.14%
7,O=C(NCC1(N2CCOCC2)CCCCC1)c1cc(=O)[nH]c2ccccc12,inactive: -0.13%
8,O=C(NCC1(N2CCCCC2)CCCCC1)c1cccc([N+](=O)[O-])c1,inactive: -0.09%
9,N#CC1(Nc2ccccc2)CCN(CCc2ccccc2)CC1,inactive: -3.89%
10,COc1ccc(NC2CCN(CCc3ccccc3)CC2)c(OC)c1,inactive: -4.05%
11,O=C(NCC1(N2CCOCC2)CCCCC1)c1cc2ccccc2o1,inactive: 2.59%
12,CCOC(=O)N1CCC(Nc2ccc(OC)cc2)CC1,inactive: 13.7%
13,O=C(OC1CN2CCC1CC2)C1c2ccccc2Oc2ccccc21 (stereo not given),inactive: -13.1%
14,COc1ccc(C(=O)NCC2(N3CCCCC3)CCCCC2)c(OC)c1OC,inactive: 3.28%
15,CCC(CO)(C(=O)OC1CN2CCC1CC2)c1ccccc1 (stereo not given),inactive: -6.79%
16,COc1cc(OC)cc(C(=O)NCC2(N3CCOCC3)CCCCC2)c1,inactive: 1.3%
17,CCOc1ncccc1C(=O)NCC1(N2CCOCC2)CCCCC1,inactive: 3.84%
18,CC(C)(C)OC(=O)N1CCC(Nc2ccccc2)CC1,inactive: 0.36%
19,CCN1CCC(Nc2cccc(F)c2)CC1,inactive: 5.71%
20,CN(C)c1ccc(C(=O)NCC2(N3CCCCC3)CCCCC2)cc1,inactive: -8.17%
21,c1ccc(CN2CCC(Nc3ccccc3)CC2)cc1,inactive: -1.43%
22,N#Cc1ccc(C(=O)NCC2(N3CCCCC3)CCCCC2)cc1,inactive: -6.38%
23,N/C(=N\O)c1c(N)no[n+]1[O-],inactive: -0.63%
24,O=C(OC1CN2CCC1CC2)C1c2ccccc2C=Cc2ccccc21 (stereo not given),inactive: 6.43%
25,COc1ccc(C(=O)NCC2(N3CCOCC3)CCCCC2)cc1OC,inactive: -2.08%

# Source: PubChem BioAssay AID920 (The Scripps Research Institute Molecular Screening Center, 2007)
